Test results published in patent EP0807626A1, “N-HYDROXYUREA DERIVATIVES” (Nikken Chemicals Company, Limited, priority 1995, dated 1996).

Biological target: T1, lipoxygenase (Rattus norvegicus, UniProt P12527)
T1 construct: the peritoneal cavities were lavaged and the polymorphonuclear leukocytes were recovered; endogenous in cells; host or cells: casein-elicited peritoneal polymorphonuclear leukocytes of Wistar male rats
T1 sequence (P12527 1-673): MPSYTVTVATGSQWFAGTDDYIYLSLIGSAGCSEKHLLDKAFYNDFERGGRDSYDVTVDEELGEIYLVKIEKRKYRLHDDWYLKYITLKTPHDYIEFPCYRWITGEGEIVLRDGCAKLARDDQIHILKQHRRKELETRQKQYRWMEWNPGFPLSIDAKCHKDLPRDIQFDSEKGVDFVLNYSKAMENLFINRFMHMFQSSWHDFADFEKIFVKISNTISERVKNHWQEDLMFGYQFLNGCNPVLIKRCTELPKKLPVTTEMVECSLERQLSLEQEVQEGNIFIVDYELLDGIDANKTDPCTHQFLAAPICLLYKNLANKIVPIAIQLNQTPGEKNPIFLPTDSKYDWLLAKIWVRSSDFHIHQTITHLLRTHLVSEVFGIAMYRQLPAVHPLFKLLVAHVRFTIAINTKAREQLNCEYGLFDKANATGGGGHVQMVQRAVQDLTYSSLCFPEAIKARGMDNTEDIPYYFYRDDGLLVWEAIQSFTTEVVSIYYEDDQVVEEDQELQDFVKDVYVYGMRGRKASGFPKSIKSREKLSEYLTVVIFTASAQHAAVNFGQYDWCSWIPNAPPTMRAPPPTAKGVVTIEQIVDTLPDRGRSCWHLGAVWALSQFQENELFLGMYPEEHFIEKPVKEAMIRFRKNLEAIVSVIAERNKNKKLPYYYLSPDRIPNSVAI
Experiment: Test of lipoxygenase inhibitory action (production of leukotriene B4 in rat polymorphonuclear leukocytes)
Format: cell-based
Experimental: Using rat polymorphonuclear leukocytes, a test of the lipoxygenase inhibitory activity of the test compounds was determined the amount of production of leukotriene B4.
Wistar male rats (Japan Clea) were intraperitoneally administered with 12% sodium casein. After 16 hours, the peritoneal cavities were lavaged and the polymorphonuclear leukocytes were recovered. The obtained polymorphonuclear leukocytes were suspended in a phosphate buffer (137 mM NaCl, 3 mM KCl, 8 mM Na2HPO4, 2 mM KH2PO4) (2.5 × 10^5 cells/0.4 ml), then the incubation was carried out at 37°C for 10 minutes the test compound (final concentration 10^-5M) was added and then for 5 minutes after a calcium solution (10 mM CaCl2, 0.86% NaCl) 0.1 ml was added, then 1.25 µl of calcium ionophore (20 µM, A-23187) was added and the reaction started. Five minutes after the addition, 250 µl of methanol was added to stop the reaction. After the reaction was stopped, the resultant mixture was centrifuged for 20 minutes (4°C, 3000 rpm), then the amount of leukotriene B4 in the supernatant was measured by the EIA method (Cayman Co. kit).
As the test compound, the above mentioned Compound 1 to Compound 4, Compound 9 to Compound 11, Compound 22 to Compound 26, Compound 28, Compound 29, compound 32, Compound 33, and Compound 40 to Compound 48 were used. As the control, A-64077 was used.

Work on `CC(c1cc2ccccc2s1)N(O)C(N)=O` (stereo not shown) [Compound A-64077, reference compound] yielded an IC50 of 1000 nM.
